From patent US3941842A, “P,P'-Disubstituted α-trichloromethylbenzylanilines” (priority 1972, dated 1976)

Test system: Phormia regina
Assay: not given
Settings: synergistic ratio: LD50 alone/LD50 synergized with piperonyl butoxide
Description: The compounds of the present invention were tested for insecticidal activity by standard methods, and compared with the insecticidal activities of DDT and symmetrical analogs of DDT, such methoxychlor. Toxicological methods for the determination of the topical LD50 values to adult female SNAIDM and RSP houseflies, Musca domestica L. and to Phormia regina, and LC50 values to Culex pipiens quinquefasciatus Say, and Anopheles albimanus Weid mosquitoes were described by Metcalf el al., 44 Bull. World Health Org. […] The methods for evaluation of metabolism by mouse liver homogenate and by female RSP housefly and salt-marsh caterpillar larvae Estigmene acrea Drury, were described by Kapoor et al., 18 J. Agr. […] The techniques for model eocsystem evluation were described by Metcalf et al., 5 J. Environ. Sci. Tech.
(§1) Since piperonyl butoxide serves to block the action of MFO, the synergized LD50 values express the intrinsic toxicity of the compounds. With the detoxifying action of MFO enzymes blocked, the intrinsic toxicity of the compounds can thus be measured.

| Structure (SMILES) | SR, Phormia regina |
| --- | --- |
| CCOc1ccc(NC(c2ccc(OCC)cc2)C(Cl)(Cl)Cl)cc1 (stereo not drawn) [Compound III, α-trichloromethyl-p-ethoxybenzyl-p-ethoxyaniline] | 3.7 |
| COc1ccc(NC(c2ccc(OC)cc2)C(Cl)(Cl)Cl)cc1 (stereo not drawn) [Compound II] | 3.4 |
| Cc1ccc(NC(c2ccc(C)cc2)C(Cl)(Cl)Cl)cc1 (stereo not drawn) [IV] | 1.6 |
| CCOc1ccc(C(Nc2ccc(Cl)cc2)C(Cl)(Cl)Cl)cc1 (stereo not drawn) [VII, α-trichloromethyl1p-ethoxybenzyl-p-chloroaniline] | 1.2 |
| CCOc1ccc(C(Nc2ccc(C)cc2)C(Cl)(Cl)Cl)cc1 (stereo not drawn) [XI, α-trichloromethyl-p-ethoxybenzyl-p-methylaniline] | 1.8 |
| CCCCOc1ccc(C(Nc2ccc(OC)cc2)C(Cl)(Cl)Cl)cc1 (stereo not drawn) [XVIII] | > 4 |
| COc1ccc(C(Nc2ccc(C)c(C)c2)C(Cl)(Cl)Cl)cc1 (stereo not drawn) [XXIII] | 5.0 |
| COc1ccc(C(Nc2ccc(C)cc2C)C(Cl)(Cl)Cl)cc1 (stereo not drawn) [XXIV] | 3.9 |
| COc1ccc(C(Nc2ccc(C3CCCCC3)cc2)C(Cl)(Cl)Cl)cc1 (stereo not drawn) [XXVII] | > 2 |
| COc1ccc(NC(c2ccc(N(C)C)cc2)C(Cl)(Cl)Cl)cc1 (stereo not drawn) [XXV] | > 3 |

Test system: not listed separately
Assay: Model ecosystem: distribution, ecological magnification and Biodegradability Index
Settings: total recovered polar/total recovered nonpolar metabolites
Source text: After the amounts of the various metabolites have been calculated and a determination is made as to which of the metabolites are to be designated as "polar" and which are to be designated as "non-polar", a Biodegradability Index (amount of polar metabolites/amount of nonpolar metabolites) may be calculated. Remembering that nonpolar compounds, such as DDT are readily soluble in the fatty tissues, but are not readily soluble in water based solutions, and that the cell fluid is essentially a water based solution, the lower the Biodegradability Index, the lower the amount of biodegradability of the compound. The higher the amount of polarity, the greater the likelihood that the polar compound will dissolve in water, a very polar compound, and be eliminated from the cell.
The environmental fate of any new pesticide is a factor of paramount importance in determining how and where it might be used. […]
It is of interest to compare the model ecosystem behavior of compound III in Table II, α-trichloromethyl-p-ethoxy benzyl-p-ethoxy aniline, "ethoxyaniline" of Table IV, with the corresponding DDT analog "ethoxychlor" [2,2-bis(p-ethoxyphenyl)-1,1,1-trichloroethane], as evaluated by Kapoor et al., 20(1) J. Agr. […]

| Structure (SMILES) | Biodegradability Index (B.I.) |
| --- | --- |
| CCOc1ccc(NC(c2ccc(OCC)cc2)C(Cl)(Cl)Cl)cc1 (stereo not drawn) [Compound III, α-trichloromethyl-p-ethoxybenzyl-p-ethoxyaniline] | 2.0 |

Test system: Musca domestica (SNAIDM and RSP strains), Phormia regina, Culex fatigans and Anopheles albimanus
Assay: Insecticidal activity over the test insects (Table II, summarised in words)
Assay type: in vivo
Settings: synergism by piperonyl butoxide
Description: The compounds of the present invention were tested for insecticidal activity by standard methods, and compared with the insecticidal activities of DDT and symmetrical analogs of DDT, such methoxychlor. Toxicological methods for the determination of the topical LD50 values to adult female SNAIDM and RSP houseflies, Musca domestica L. and to Phormia regina, and LC50 values to Culex pipiens quinquefasciatus Say, and Anopheles albimanus Weid mosquitoes were described by Metcalf el al., 44 Bull. World Health Org. 363 (1971). The methods for evaluation of metabolism by mouse liver homogenate and by female RSP housefly and salt-marsh caterpillar larvae Estigmene acrea Drury, were described by Kapoor et al., 18 J. Agr. Food Chem. 1145 (1970). The techniques for model eocsystem evluation were described by Metcalf et al., 5 J. Environ. Sci. Tech. 709 (1971).
as §1

| Structure (SMILES) | SR values (in words) |
| --- | --- |
| COc1ccc(NC(c2ccc(N(C)C)cc2)C(Cl)(Cl)Cl)cc1 (stereo not drawn) [XXV] | high SR value |
